An excerpt weighted towards active compounds, which were near 1.8% of everything screened.
MLL AF4-AF9 inh = MLL-AF4/AF9 protein interaction inhibition | P42568 | inhibition, % at 10 µM | hit rate 0.47% among 350,000 | AlphaScreen, biotin-AF4 peptide binding to FLAG-AF9;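 active means every replicate reaching a set inhibition limit, whatever the replicate mean, cut at about 25% in these data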;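 further: 0% = plate neutral control median and 100% = total signal loss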
SIRT5 block = blocks human SIRT5 desuccinylation of peptide | inhibition, % at 15 µM | hit rate 1.1% among 330,000 | Purified SirT5, succinyl-peptide AMC, trypsin-coupled fluorescence | Q9NXA8; in the data active means inhibition above about 15%
RAD54 inh = RAD54 (human) branch migration inhibition; inhibition, % at 10.4 µM; AID 602329; RAD54 Holliday junction branch migration, FAM/BHQ fluorescence; Q92698; hit rate 0.14% among 360,000;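 active means mean normalized replicate activity at least 40 and at least half of replicates scoring 40 or more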;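 further: 0% = median of neutral control wells and 100% = median of positive control wells; inhibitors cause a drop in the FAM fluorescence signal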
RAD52 anneal inh = RAD52 (human) annealing inhibition; hit rate 0.46% among 360,000; inhibition, % at 18.7 µM; recombinant RAD52 DNA annealing, FRET fluorescence; P43351; AID 651710;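 active means every replicate showing at least 50% inhibition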
Yeast UUG start = yeast start codon fidelity modulation | S. cerevisiae UUG-firefly luciferase reporter, luminescence/redox ratio | activity score, % at 18.7 µM | hit rate 0.13% among 350,000 | AID 602363;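 active means replicate mean at a twofold rise or more, about +100% in these data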;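 further: firefly luciferase made from a UUG start codon reports start codon fidelity; reporter light over untreated wells divided by growth signal over untreated wells; some hits fall short of that in this replicate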
E-selectin induc = induces E-selectin expression in human endothelial cells; P16581; HUVEC E-selectin immunofluorescence imaging; normalized: neutral wells 0, TNF-alpha wells 100; activation, % at 7.58 µM; hit rate 0.37% among 260,000;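 active means mean E-selectin-positive cell signal at least 10% of the positive control, reached in at least 60% of replicates, without over 20% cell loss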
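Read-out basis: % PE-positive cells; Test system: HUVEC primary endothelial cells; Technique: immunofluorescence imaging; Dosing: single-point compound dose.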
An asterisk follows results filed as active.

`CCCSc1ccc([C@@H]2[C@H]3C(=O)N(CC)C(=O)[C@H]3[C@]3(C(=O)OC)CCCN23)cc1` gave MLL AF4-AF9 inh -1.6, SIRT5 block 36.2*, RAD54 inh -14.1, RAD52 anneal inh -200.9, Yeast UUG start -19.8 and E-selectin induc -0.4.
For COc1ccc2c3c([nH]c2c1)[C@H](CO)N(Cc1ccccc1Cl)CC31CCN(C(C)=O)CC1 the results were MLL AF4-AF9 inh -1.4 and E-selectin induc -0.5.
`COc1ccc(S(=O)(=O)N2CCC3(CC2)CN(C(=O)CN(C)C)[C@@H](CO)c2c3c3ccc(OC)cc3n2C)cc1` gave MLL AF4-AF9 inh 34.6*, SIRT5 block -1.7, RAD52 anneal inh 47.5 and E-selectin induc 0.7.
`COc1ccc2c3c(n(C)c2c1)[C@@H](CO)N(C(=O)CN(C)C)CC31CCN(C(=O)CN(C)C)CC1` gave MLL AF4-AF9 inh 4.4, SIRT5 block 0.7, RAD52 anneal inh 22.2 and E-selectin induc 0.0.
Screening CCCNC(=O)N1CC2(CN(CC3CCCC3)C2)c2c(n(C)c3cc(OC)ccc23)[C@H]1CO returned MLL AF4-AF9 inh 28.2*, SIRT5 block 1.3, RAD52 anneal inh 16.0 and E-selectin induc 1.2.
Screening CCCNC(=O)N1CC2(CN(S(=O)(=O)c3ccccc3)C2)c2c(n(C)c3cc(OC)ccc23)[C@H]1CO returned MLL AF4-AF9 inh -3.0, SIRT5 block -2.6, RAD52 anneal inh 10.1 and E-selectin induc -0.5.
For CCCNC(=O)N1CC2(CN(S(=O)(=O)c3ccc(OC)cc3)C2)c2c(n(C)c3cc(OC)ccc23)[C@H]1CO the results were MLL AF4-AF9 inh -0.5, SIRT5 block 16.0*, RAD52 anneal inh 13.9 and E-selectin induc -0.5.
Screening CCCC(=O)N1CC2(CCN(C(=O)NC(C)C)CC2)c2c(n(C)c3cc(OC)ccc23)[C@H]1CO returned MLL AF4-AF9 inh 1.2 and E-selectin induc -0.1.
COc1ccccc1CNc1nc2cc(-c3ccc(OC)c(OC)c3)sc2c(=O)n1C was read as MLL AF4-AF9 inh -1.3, SIRT5 block 19.8*, RAD54 inh 1.1, RAD52 anneal inh 12.1 and E-selectin induc -0.2.
For COc1ccc(-c2ccc([C@H]3[C@H](C#N)N(C(=O)C4CCC4)[C@H]3CO)cc2)cc1 the results were MLL AF4-AF9 inh 1.6, SIRT5 block -3.5, RAD54 inh -0.3, RAD52 anneal inh 0.1, Yeast UUG start -7.8 and E-selectin induc 3.4.
For C[C@H](CO)N1C[C@H](C)[C@@H](CN(C)C(=O)Nc2cccc3ccccc23)Oc2ccc(NS(=O)(=O)c3cccs3)cc2C1=O the results were MLL AF4-AF9 inh -0.1, SIRT5 block -2.4, RAD54 inh 4.4, RAD52 anneal inh -9.9, Yeast UUG start 8.2 and E-selectin induc -0.1.
`COc1ccc2c3c(n(C)c2c1)[C@H](CO)N(C(=O)C1CCCC1)CC31CCN(Cc2cccc(F)c2)CC1` gave MLL AF4-AF9 inh 25.8*, SIRT5 block 1.0, RAD52 anneal inh 21.3 and E-selectin induc -0.4.
Screening COc1ccc2c3c(n(C)c2c1)[C@H](CO)N(C(=O)C1CC1)CC31CN(Cc2cccc(F)c2)C1 returned MLL AF4-AF9 inh 22.0, SIRT5 block 0.0, RAD52 anneal inh 16.1 and E-selectin induc -0.3.
`COc1ccc2c3c(n(C)c2c1)[C@@H](CO)N(C(=O)C1CCCC1)CC31CCN(Cc2cccc(F)c2)CC1` gave MLL AF4-AF9 inh 37.7*, SIRT5 block 2.1, RAD52 anneal inh 20.0 and E-selectin induc -0.4.
C[C@@H]1CN([C@@H](C)CO)C(=O)Cc2cc(NS(=O)(=O)c3cccs3)ccc2O[C@@H]1CN(C)Cc1ccccc1 was read as MLL AF4-AF9 inh -1.1, SIRT5 block 0.9, RAD54 inh 7.2, RAD52 anneal inh -7.8, Yeast UUG start 1.9 and E-selectin induc 0.1.
C[C@H]1CN([C@@H](C)CO)C(=O)Cc2cc(NS(=O)(=O)c3cccs3)ccc2O[C@@H]1CN(C)Cc1ccc(-c2ccccc2)cc1 was read as MLL AF4-AF9 inh 2.2, SIRT5 block 15.3*, RAD54 inh 0.0, RAD52 anneal inh 19.8, Yeast UUG start 5.2 and E-selectin induc 0.2.
C[C@@H]1CN([C@H](C)CO)C(=O)Cc2cc(NS(=O)(=O)c3cccs3)ccc2O[C@H]1CN(C)Cc1ccc(C(=O)Nc2ccccc2N)cc1 was read as MLL AF4-AF9 inh -3.0, SIRT5 block -1.8, RAD52 anneal inh 18.2 and E-selectin induc -2.4.

Part of the list above in order of length of the SMILES, smallest number first:
Screening CCCC(=O)N1CC2(CCN(C(=O)NC(C)C)CC2)c2c(n(C)c3cc(OC)ccc23)[C@H]1CO returned MLL AF4-AF9 inh 1.2 and E-selectin induc -0.1.
C[C@@H]1CN([C@@H](C)CO)C(=O)Cc2cc(NS(=O)(=O)c3cccs3)ccc2O[C@@H]1CN(C)Cc1ccccc1 was read as MLL AF4-AF9 inh -1.1, SIRT5 block 0.9, RAD54 inh 7.2, RAD52 anneal inh -7.8, Yeast UUG start 1.9 and E-selectin induc 0.1.
C[C@H]1CN([C@@H](C)CO)C(=O)Cc2cc(NS(=O)(=O)c3cccs3)ccc2O[C@@H]1CN(C)Cc1ccc(-c2ccccc2)cc1 was read as MLL AF4-AF9 inh 2.2, SIRT5 block 15.3*, RAD54 inh 0.0, RAD52 anneal inh 19.8, Yeast UUG start 5.2 and E-selectin induc 0.2.
